From PubChem BioAssay AID758 (NMMLSC, 2007)
The list shows a part of the results, in another mix than the full data. Some results for these compounds are left out of this collection, so the calls shown say nothing about other tests. Activity calls are given as the source filed them.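 Rule for the calls: active = fluorescent GTP binding to Rab7 beads changed by at least 20 points from the 100% baseline, either direction, mostly lower; inconclusive = compound itself probably fluorescent, or too few beads counted; inactive = the rest.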

system: Rab7 GTPase wild type (dog), Bodipy-FL-GTP binding; assay: modulators of GTP binding to Rab7, primary screen, biochemical, wildtype, multiplex bead flow cytometry (AID 758); conditions: GST-Rab7 beads, fluorescent GTP binding, at 10 µM, actives lie on both sides, untreated = 100%, excess cold GTP = 0%;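 note: median green fluorescence of bound Bodipy-FL-GTP per Rab7 bead population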

SMILES | GTP binding activity (percent of control)
CC(C)N1C(=O)CC2(CCN(CCOC(=O)C(O)(c3ccccc3)c3ccccc3)CC2)C1=O | inactive: 102%
O=C(NCC1(N2CCCCC2)CCCCC1)c1cc([N+](=O)[O-])ccc1Cl | inactive: 98%
C=CCN1CCN(CCOC(=O)C(O)(c2ccccc2)c2ccccc2)CC1 | inactive: 97%
CCN1CCCC(OC(=O)C2(O)c3ccccc3C=Cc3ccccc32)C1 (centres undefined) | inactive: 97%
CN(C)C1CCCC1OC(=O)C(O)(c1ccccc1)c1ccccc1 (centres undefined) | inactive: 102%
Cc1ccccc1C(=O)NCC1(N2CCCCC2)CCCCC1 | inactive: 99%
COc1cccc(C(=O)NCC2(N3CCCCC3)CCCCC2)c1 | inactive: 105%
CN(C)c1cccc(C(=O)NCC2(N(C)C)CCCCC2)c1 | inactive: 100%
O=C(OC1CN2CCC1CC2)C(CO)(c1ccccc1)c1ccccc1 (centres undefined) | inactive: 99%
